Experimental data: patent EP0738149B1, “1-AMINOINDAN DERIVATIVES AND COMPOSITIONS THEREOF” (priority 1994, dated 1995)

Test system: Male mongolian gerbils
Assay: Global brain ischemia in gerbils (CA1 pyramidal neurons)
Format: in vivo
Details: positive control, 40 mg/kg; fraction of hippocampi protected from ischemia

CCCC(C)C1(CC)C(=O)NC(=O)NC1=O (stereo not shown) [Pentobarbitone, sodium pentobarbital, reference compound]
PERCENT PROTECTION: 87.5%
